Results as given in ChEMBL document CHEMBL5223086, “Recent Progress and Clinical Development of Inhibitors that Block MDM4/p53 Protein-Protein Interactions” (J Med Chem, 2021).

Sequences of proteins named here, by UniProt entry; tags and fusion partners are left off.
UniProt Q00987, whole entry, looked up: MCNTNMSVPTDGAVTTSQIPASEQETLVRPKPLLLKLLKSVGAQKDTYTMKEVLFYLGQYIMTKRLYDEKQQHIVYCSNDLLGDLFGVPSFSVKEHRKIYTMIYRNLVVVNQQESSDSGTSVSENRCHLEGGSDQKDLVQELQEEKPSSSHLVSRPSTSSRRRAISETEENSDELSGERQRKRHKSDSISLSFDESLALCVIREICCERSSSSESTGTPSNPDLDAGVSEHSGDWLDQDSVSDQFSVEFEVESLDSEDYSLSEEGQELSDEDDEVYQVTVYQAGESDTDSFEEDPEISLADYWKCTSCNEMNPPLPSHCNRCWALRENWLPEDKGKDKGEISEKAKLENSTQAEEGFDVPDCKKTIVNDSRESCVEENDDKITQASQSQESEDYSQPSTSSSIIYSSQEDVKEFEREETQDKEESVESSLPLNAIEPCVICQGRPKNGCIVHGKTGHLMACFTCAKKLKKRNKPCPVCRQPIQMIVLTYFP

Target: E3 ubiquitin-protein ligase Mdm2 (Homo sapiens, UniProt Q00987)
Experiment: Inhibition of MDM2 assessed as fold change

- fold change (FC): > 100
Compound: COc1cc(C(=O)O)ccc1NC(=O)[C@@H]1N[C@@H](CC(C)(C)C)[C@](C#N)(c2ccc(Cl)cc2F)[C@H]1c1cccc(Cl)c1F [IDASANUTLIN]
